{
  "sequences": {"note": "Sequences of proteins named here, by UniProt entry; tags and fusion partners are left off. Residues count along the entry.", "UniProt P05067, 672-713": "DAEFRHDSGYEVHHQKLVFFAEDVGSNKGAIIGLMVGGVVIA"},
  "source": "patent US20100249419A1",
  "about": "“UTILIZATION OF NOVEL COMPOUNDS WITH AMYLOID AFFINITY AND METHOD OF PRODUCING THE SAME” (NIHON MEDI-PHYSICS CO., LTD., priority 2007, published 2010)",
  "target": "T1, aggregated Aβ (Aβ1-42) amyloid (Homo sapiens, UniProt P05067)",
  "T1 construct": "Aβ1-42 (manufactured by Wako) was dissolved in phosphate buffer (pH 7.4); purchased Wako",
  "test": "In vitro binding test: inhibition of [^125I]3′-I-BTA-0 binding to amyloid",
  "details": "[^125I]3′-I-BTA-0 400 pmol/L, amyloid 1 μmol/L, 22° C., 3 hours",
  "method": "Affinity of the present compounds with amyloid was examined by the following in vitro binding tests.\nThe measured radioactivity level was defined as the background radioactivity level, and used in the calculation of the inhibition ratio (hereinafter referred to as BG).\n(9) Using the radioactivity levels measured above in (7) and (8), the inhibition ratio was determined by the following formula (1).\nA graph in which values converted by probit transformation from the obtained inhibition ratios were plotted relative to logarithms of concentrations of compounds for evaluation was prepared to obtain an approximate straight line by the least square method.",
  "data": [
    {"compound": "Cc1ccc2c(c1)sc(-c1ccc(N(C)C)cc1)[n+]2C", "note": "[Thioflavin T, reference compound]", "values": [
      {"measurement": "IC50", "value": "> 1000", "unit": "nM"}
    ]}
  ]
}
